Patent publication US20040072162A1, “Hiv peptides and nucleic acids encoding them for diagnosis and control of hiv infection” (priority 2000, published 2004)

Biological target: HLA-A2 MHC-I (HLA-A*0204, affinity purified from the EBV transformed cell line RML) (human)

| Binder | Kd |
| --- | --- |
| FVNTPPLV (modifications not checked) [8.111nat (4.119)] | 32 nM |
| KIKPPLPSV (modifications not checked) [8.10natl] | 25 nM |
